Results taken from article PMC11876671, “Investigating blood–brain barrier penetration and neurotoxicity of natural products for central nervous system drug development” (Scientific Reports, 2025).

Conditions: Table S3: compounds exhibiting low PAMPA-BBB permeability

Sequence	PAMPA-BBB Pe(10^-6 cm/sec)
OXYPAEONIFLORIN	<1 10^-6 cm/sec
EVODIAMINE	<1 10^-6 cm/sec
